Apparent affinities of Ab-14 variants for a coronavirus HR2 peptide

Values reported by Engelhart et al. 2022, doi:10.1038/s41597-022-01779-4 (FLAb copy).

All variants were tested on one target, the spike HR2 peptide PDVDLGDISGINAS (SARS-CoV-2).

Ab-14 is the parent antibody, in scFv form: VH, then a (GGGGS)3 linker, then VL. The heavy chain is unchanged in all variants.
VH: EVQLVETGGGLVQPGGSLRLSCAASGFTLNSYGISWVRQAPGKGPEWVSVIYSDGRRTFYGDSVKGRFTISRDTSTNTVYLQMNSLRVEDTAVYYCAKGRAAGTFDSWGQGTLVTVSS
VL: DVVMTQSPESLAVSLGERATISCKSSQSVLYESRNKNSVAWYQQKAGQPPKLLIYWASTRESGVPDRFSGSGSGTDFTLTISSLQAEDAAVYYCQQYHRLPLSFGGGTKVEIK

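Phage display of a naive human antibody library on the peptide gave the parent. Variants in AAYL50 differ from the parent at up to three CDR positions; double and triple changes were sampled at random. Affinity was read by AlphaSeq, a pooled yeast mating assay with surface-displayed partners. After mating in shaken culture at 30 °C for 16 h, diploids were selected and their barcode pairs sequenced. Each replicate has its own calibration line, from reference interactions of the BCL2 family. The assay was run in three technical replicates.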

Substitutions are numbered in sequence along the VL above, starting at 1 (not Kabat). Numbers give log10(Kd / nM), so 0 is 1 nM and 3 is 1 µM. Smaller is tighter. "n.d." marks a missing value. The strain was present, yet no cells mated with the target were sequenced in that replicate, which points to weak or no binding. In this assay the parent's reference entry averaged 0.65; its copy inside this library read 1.68. Nonspecific signal, from three strains lacking the peptide, appeared in 18% of pairings of library AAYL50, centred on 4.19 (5% of these signals below 2.99); values are not corrected for it. The control count says in how many pairings with the empty strains this scFv gave a signal, with their mean in brackets.

{"changes": "K24W Q95K S103Q", "log10 Kd (nM) by replicate": "n.d. n.d. 2.08", "signal with controls": "0/9"}
{"changes": "K36P A40P Q95R", "log10 Kd (nM) by replicate": "n.d. n.d. n.d.", "signal with controls": "1/9 (4.13)"}
{"changes": "Q27A R34C Q96D", "log10 Kd (nM) by replicate": "n.d. n.d. n.d.", "signal with controls": "1/9 (4.78)"}
{"changes": "S28F K36R V39E", "log10 Kd (nM) by replicate": "n.d. n.d. n.d.", "signal with controls": "0/9"}
{"changes": "N35S E61Y Q95N", "log10 Kd (nM) by replicate": "3.51 n.d. n.d.", "signal with controls": "0/9"}
{"changes": "V39G S62C Y97E", "log10 Kd (nM) by replicate": "n.d. n.d. n.d.", "signal with controls": "0/9"}
{"changes": "S26R V39S S58W", "log10 Kd (nM) by replicate": "5.36 4.41 n.d.", "signal with controls": "2/9 (5.13)"}
{"changes": "S28L S58R S62V", "log10 Kd (nM) by replicate": "3.26 2.97 2.76", "signal with controls": "0/9"}
{"changes": "S25C K36G E61S", "log10 Kd (nM) by replicate": "0.40 0.69 0.69", "signal with controls": "1/9 (3.47)"}
{"changes": "N37D A57F R60S", "log10 Kd (nM) by replicate": "n.d. n.d. 3.97", "signal with controls": "0/9"}
{"changes": "V29Q R34Y A57R", "log10 Kd (nM) by replicate": "1.24 1.21 0.94", "signal with controls": "1/9 (3.41)"}
{"changes": "S28N T59P P101V", "log10 Kd (nM) by replicate": "n.d. n.d. n.d.", "signal with controls": "1/9 (2.70)"}
{"changes": "S33R N35Y A57W", "log10 Kd (nM) by replicate": "4.36 n.d. n.d.", "signal with controls": "2/9 (4.36)"}
{"changes": "S28R S62K Y97C", "log10 Kd (nM) by replicate": "n.d. n.d. n.d.", "signal with controls": "0/9"}
{"changes": "S33M E61I Q96Y", "log10 Kd (nM) by replicate": "2.64 2.76 3.38", "signal with controls": "1/9 (5.22)"}
{"changes": "S28E S58V E61M", "log10 Kd (nM) by replicate": "1.42 1.74 1.71", "signal with controls": "0/9"}
{"changes": "K36W S58G", "log10 Kd (nM) by replicate": "1.51 1.52 1.34", "signal with controls": "2/9 (3.52)"}
{"changes": "L30T N37V L100G", "log10 Kd (nM) by replicate": "4.60 n.d. 4.06", "signal with controls": "0/9"}
{"changes": "S26Q Y31Q R60A", "log10 Kd (nM) by replicate": "4.68 2.89 3.52", "signal with controls": "3/9 (3.48)"}
{"changes": "K36G W56H P101E", "log10 Kd (nM) by replicate": "0.24 0.60 0.33", "signal with controls": "0/9"}
{"changes": "Y31G V39K H98F", "log10 Kd (nM) by replicate": "n.d. n.d. n.d.", "signal with controls": "0/9"}
{"changes": "K36W N37T T59M", "log10 Kd (nM) by replicate": "2.56 2.36 2.59", "signal with controls": "7/9 (4.36)"}
{"changes": "L30G K36S H98W", "log10 Kd (nM) by replicate": "0.65 0.81 0.76", "signal with controls": "3/9 (3.28)"}
{"changes": "R34F Q96A H98E", "log10 Kd (nM) by replicate": "2.93 2.21 2.88", "signal with controls": "0/9"}
{"changes": "S26W Q27Y V39M", "log10 Kd (nM) by replicate": "1.82 2.00 2.99", "signal with controls": "0/9"}
{"changes": "N35R T59M", "log10 Kd (nM) by replicate": "0.42 1.66 1.29", "signal with controls": "0/9"}